Where “and” joins values, the source holds several entries; their conditions need not be identical. Identical values can stand only once. This is a selection; strong and weak results do not stand in their true shares. Calls of active or inactive are those of the source. No stated cut-off is given here; in the data, active means max activation above about 30%; inactive means the rest.
Target: D(3) dopamine receptor (Homo sapiens) (UniProt P35462)
Assay: qHTS of D3 Dopamine Receptor Agonist: qHTS; further: 0% is about no effect
Conditions: D3R DiscoveRx beta-arrestin cells, luminescence, 90 min; stronger effect = higher value
Description: D3 DARs represent a very important target for the treatment of several neuropsychiatric disorders. Indeed, one of the most promising therapeutic applications for the D3 DAR is in the area of addiction and related disorders. […] These findings have been observed with a number of addictive substances including cocaine, amphetamine, nicotine, and alcohol. […] Antagonism of the D3 DAR may also be therapeutic in the treatment of schizophrenia or psychosis. […] Since the D3 DAR is expressed in areas of the CNS associated with the control of mood and emotion, it has been hypothesized that selective antagonism of the D3 DAR may be effective in treating psychosis without inducing the motor side effects typically seen with D2 DAR antagonists.
This part of the project aims to discover novel agonist.
NIH Chemical Genomics Center [NCGC]
NIH Molecular Libraries Probe Centers Network [MLPCN]
Assay Submitter (PI): David Sibley, NINDS
Freshly passaged cells are plated in 1536 well white, solid bottom plates at a density of 1500 cells/well in 3microl of complete media. After an overnight incubation at 37 degrees C in 5% CO2, cells are loaded with 23nl of test compound from the compound library (as well as dopamine controls) using a 1536 pintool and incubated at 37 degrees C for 90 minutes. Two microliters of DiscoveRx reagent is then added to all cells, and they are incubated for an additional 30 - 60 minutes at room temperature. Following incubation, luminescence is measured on a ViewLux CCD-based luminometer reader using a 20 sec exposure time.

By UniProt entry, the sequences of proteins in these tests, tags left out.
UniProt P35462, whole entry, looked up: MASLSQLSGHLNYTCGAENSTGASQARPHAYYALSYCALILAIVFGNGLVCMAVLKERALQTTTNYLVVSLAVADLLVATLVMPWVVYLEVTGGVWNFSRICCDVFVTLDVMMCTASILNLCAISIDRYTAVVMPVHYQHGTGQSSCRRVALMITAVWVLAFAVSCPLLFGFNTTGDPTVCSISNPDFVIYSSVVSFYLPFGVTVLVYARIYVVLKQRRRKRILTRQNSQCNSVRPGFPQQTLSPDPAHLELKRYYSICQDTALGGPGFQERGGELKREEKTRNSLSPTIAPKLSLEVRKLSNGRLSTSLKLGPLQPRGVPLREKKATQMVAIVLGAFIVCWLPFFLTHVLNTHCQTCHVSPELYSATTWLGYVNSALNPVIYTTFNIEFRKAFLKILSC

Row | SMILES | max activation
1 | CCOc1ccc(C2=NCC(CBr)S2)cc1 (stereo not given) | inactive: -1.22%
2 | CC(NC(=O)COC(=O)C(O)(c1ccccc1)c1ccccc1)c1ccccc1 (stereo not given) | inactive: 0.268%
3 | Cc1ccccc1OP(=O)(Nc1ccccn1)Oc1ccccc1C | inactive: 6.92%
4 | O=c1c2cc([N+](=O)[O-])ccc2[nH]c2c([N+](=O)[O-])cc([N+](=O)[O-])cc12 | inactive: -11.7%
5 | CN(C)C(=O)Oc1noc2ccccc12 | inactive: 8.35%
6 | COC(=O)c1cc2c(s1)N=C(c1ccccc1)N(C)P2(=O)N1CCOCC1 (stereo not given) | inactive: 7.02%
7 | Cc1ccc(OP(=O)(Nc2ccccn2)Oc2ccc(C)cc2)cc1 | inactive: 10.4%
8 | CC(=O)NC(SC(=S)N(CC(C)C)CC(C)C)C(Cl)(Cl)Cl (stereo not given) | inactive: -0.928%
9 | O=C(OC1CN2CCC1CC2)c1ccccc1 (stereo not given) | inactive: 22.6% and inactive: -5.42%
10 | CCC(=O)N1C2C3N(C(=O)CC)C1C1N(C(=O)CC)C(C(N1C(=O)CC)N3C(=O)CC)N2C(=O)CC | inactive: 3.05%
11 | O=P1(N(CCCl)CCCl)OCCC2CCCCN21 (stereo not given) | inactive: -14.5%
12 | CCNC(=S)/N=C(\N)N[N+](=O)[O-] | inactive: -5.01%
13 | O=C(NC1CCS(=O)(=O)C1)NP(=S)(Oc1ccccc1)Oc1ccccc1 (stereo not given) | inactive: 0.448%
14 | c1ccc(-c2nn[nH]n2)c(-c2nn[nH]n2)c1 | inactive: 10.6%
15 | Cc1ccc(NP(=O)(Oc2cccc(C)c2)Oc2cccc(C)c2)nc1 | active: 30%
16 | CCN(N=Nc1nonc1N)c1nonc1N | inactive: -9.92%
17 | Nc1cccc2ccc([As](=O)(O)O)cc12 | inactive: 2.33%
18 | Cc1cc(SC(NC(=O)c2ccc(F)cc2)C(Cl)(Cl)Cl)ncn1 (stereo not given) | inactive: 1.8%
19 | CCOP(=O)(Nc1ccccc1)OCC | inactive: 3.64%
20 | Cc1ccc(NP(=O)(Oc2ccccc2F)Oc2ccccc2F)nc1 | inactive: -7.72%

Row | SMILES | max activation
21 | CN(C(=O)Cc1ccc(Cl)c(Cl)c1)[C@H]1CCCC[C@@H]1N1CCCC1 | inactive: -3.49%
22 | CC(=O)Nc1ccc([As](=O)(O)O)cc1 | inactive: 3.85%
23 | O=C(O)c1ccccc1[As](=O)(O)O | inactive: 27.4%
24 | CCCC1OP(N)(=O)OCC1CC (stereo not given) | inactive: -0.322%
25 | O=P(Nc1nc2ccc(Cl)cc2s1)(c1ccccc1)c1ccccc1 | inactive: 11.3%
26 | CN(C)P(=O)(N(C)C)n1c(Nc2ccccc2)nnc1-c1ccccc1 | inactive: -0.632%
27 | O=[N+]([O-])C1C(O)C(O)C([N+](=O)[O-])C(O)C1O (stereo not given) | inactive: 5.15%
28 | Nc1cc(N)c2nonc2c1[N+](=O)[O-] | inactive: -0.178%
29 | CC(C)CC(=O)NC(Sc1ccc(Cl)cc1)C(Cl)(Cl)Cl (stereo not given) | inactive: -7.42%
30 | Oc1ccccc1CNc1ccccn1 | inactive: 2.23%
31 | O=C(NC(Sc1ccncn1)C(Cl)(Cl)Cl)c1ccccc1 (stereo not given) | inactive: -16.6%
32 | COc1ccccc1OP(=O)(Nc1ccc(C)cn1)Oc1ccccc1OC | inactive: 4.54%
33 | Cc1ccc(OP(=O)(Nc2nccs2)Oc2ccc(C)cc2)cc1 | inactive: 2.43%
34 | CN1CCCC(OC(=O)C(c2ccccc2)c2ccccc2)C1 (stereo not given) | inactive: -2.47%
35 | CCNC(C)Cc1ccc2c(c1)OCO2 (stereo not given) | inactive: -18.8%
36 | Clc1ccc(Cl)c(NC2=NCC(CBr)S2)c1 (stereo not given) | inactive: 5.39%
37 | NC(=O)c1cc([N+](=O)[O-])cc([N+](=O)[O-])c1N | inactive: 3.46%
38 | CN(C(=O)Cc1ccc(Cl)c(Cl)c1)[C@H]1CCCC[C@H]1N1CCCC1 | inactive: 0.329%
39 | Cc1ccc(N/C(=N/P(=O)(N2CCOCC2)N2CCOCC2)N2CCOCC2)cc1 | inactive: 4.02%
40 | CC(C)c1nc(Nc2ccccc2)n(P(=O)(N(C)C)N(C)C)n1 | inactive: -1.73%

Row | SMILES | max activation
41 | CC(C)=N/N=C(\N)N[N+](=O)[O-] | inactive: 8.54%
42 | CN(C)C(=O)OCCc1n(C)cc[n+]1C | inactive: -0.296%
43 | CC1CCN(C(=O)Oc2c(Cl)cc(Cl)c3cccnc23)CC1 | inactive: 5.72%
44 | c1cc(-c2nn[nH]n2)ccc1-c1nn[nH]n1 | inactive: -11.4%
45 | Nc1ccc([As](=O)(O)c2ccc(N)cc2)cc1 | inactive: 9.51%
46 | C[N+]1=C2C=CC=CC=C2SC12C([N+](=O)[O-])=CC([N+](=O)[O-])=C[C-]2[N+](=O)[O-] (stereo not given) | inactive: -26.9%
47 | CCN(/C(=N/P(=O)(N1CCOCC1)N1CCOCC1)N1CCOCC1)c1ccc(OC)cc1 | inactive: -1.74%
48 | O=[N+]([O-])c1cccc2n[nH]nc12 | inactive: -6.41%
49 | CC(=O)N1C2C3N(C(C)=O)C1C1N(C(C)=O)C(C(N1C(C)=O)N3C(C)=O)N2C(C)=O | inactive: -1.02%
50 | Cc1ccc(NP(=O)(Oc2ccccc2)Oc2ccccc2)nc1 | inactive: -4.97%
51 | CCc1nc2c(n1)c1c(non1O)c1c2no[n+]1[O-] | inactive: -1.77%
52 | O=[N+]([O-])c1cc([N+](=O)[O-])c(CCNc2ccccc2)c([N+](=O)[O-])c1 | inactive: -3.84%
53 | COc1ccc(C2=NCC(CBr)S2)cc1 (stereo not given) | inactive: 2.21%
54 | COC(=O)C1(C)COP(=O)(Nc2ccccc2)OC1 (stereo not given) | inactive: 1.88%
55 | O=[N+]([O-])c1cccc(NC2=NCC(CBr)S2)c1 (stereo not given) | inactive: 1.27%
56 | O=C(O)CNc1ccc([As](=O)(O)O)cc1 | inactive: -0.393%
57 | CC(C)(C)C(=O)NC(Sc1ccncn1)C(Cl)(Cl)Cl (stereo not given) | inactive: -3.97%
58 | O=[N+]([O-])c1ncn(CCn2ncnc2[N+](=O)[O-])n1 | inactive: 1.37%
59 | O=C(Nc1cc([As](=O)(O)O)ccc1O)c1ccccc1 | inactive: -0.851%
60 | O=P1(N(CCCl)CCCl)OCCCS1 (stereo not given) | inactive: -2.1%
